The chains behind the UniProt entries cited, without tags or fusion partners.
UniProt P10276, whole entry: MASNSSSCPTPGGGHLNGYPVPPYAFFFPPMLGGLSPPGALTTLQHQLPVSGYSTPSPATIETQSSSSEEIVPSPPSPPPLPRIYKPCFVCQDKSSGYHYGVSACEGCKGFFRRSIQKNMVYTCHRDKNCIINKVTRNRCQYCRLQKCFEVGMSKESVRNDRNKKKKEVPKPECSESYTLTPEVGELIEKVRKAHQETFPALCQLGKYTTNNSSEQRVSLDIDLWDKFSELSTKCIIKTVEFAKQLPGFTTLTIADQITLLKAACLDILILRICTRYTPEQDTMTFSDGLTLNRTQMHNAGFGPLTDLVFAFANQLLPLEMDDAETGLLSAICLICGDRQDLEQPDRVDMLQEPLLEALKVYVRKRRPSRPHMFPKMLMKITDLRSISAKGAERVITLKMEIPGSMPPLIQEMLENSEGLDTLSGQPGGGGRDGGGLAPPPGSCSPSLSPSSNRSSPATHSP

According to ChEMBL document CHEMBL3112476, “Inhibition of IκB kinase-β and IκB kinase-α by heterocyclic adamantyl arotinoids” (Bioorg Med Chem, 2014):

These compounds were tested against Retinoic acid receptor alpha (Homo sapiens, UniProt P10276) (assay: Agonist activity at Gal4-fused RARalpha (unknown origin) transfected in HEK293 cells assessed as induction of transcriptional activity at 4 uM after 6 hrs by luciferase/beta-galactosidase reporter gene assay relative to control).
Type: cell-based
In short: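 Gal4-RARα or Gal4-RXRα (10 ng) plus 2 ng β-galactosidase vector, calcium phosphate transfection into HEK-293 cells carrying a 5×UAS luciferase reporter. After 16 h, cells were washed and given 5% charcoal-treated FBS medium, then rested 2 h. Stimulation was with 4 µM compound or 0.1% DMSO; controls were 1 µM atRA (RARα) or 1 µM CD3254 (RXRα). Harvest was at 6 h (RARα) or 24 h (RXRα). Luciferase/β-gal ratio was expressed as fold over unstimulated cells. Data: 2 experiments, triplicate.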

Point of comparison: COc1nc(/C=C/C(=O)O)cnc1-c1cc(C23CC4CC(CC(C4)C2)C3)c(O)cc1C, fold change (FC) 1. Against it:
- Cc1cc(O)c(C23CC4CC(CC(C4)C2)C3)cc1-c1ncc(-c2ccc(C(=O)O)cc2)s1 — higher, 1.4
- O=C(O)c1ccc(-c2cnc(-c3ccc(O)c(C45CC6CC(CC(C6)C4)C5)c3)s2)cc1 — higher, 4.6
- Cc1cc(O)c(C23CC4CC(CC(C4)C2)C3)cc1-c1ccc(/C=C/C(=O)O)cc1Cl — higher, 1.1
- COc1nc(/C=C/C(=O)O)cnc1-c1ccc(O)c(C23CC4CC(CC(C4)C2)C3)c1 — higher, 1.1
- Cc1cc(O)c(C23CC4CC(CC(C4)C2)C3)cc1-c1ccc2cc(C(=O)O)ccc2c1Cl — higher, 1.1
- CC(=O)NCCCOc1cc(/C=C/C(=O)O)ccc1-c1cc(C23CC4CC(CC(C4)C2)C3)c(O)cc1C — the same, 1
- COCCOCOc1cc(C)c(-c2ccc3cc(C(=O)O)ccc3c2Cl)cc1C12CC3CC(CC(C3)C1)C2 — higher, 1.1
- COCCOCOc1cc(C)c(-c2ncc(-c3ccc(C(=O)O)cc3)s2)cc1C12CC3CC(CC(C3)C1)C2 — lower, 0.9
- Cc1cc(O)c(C23CC4CC(CC(C4)C2)C3)cc1-c1ccc(CC(=O)O)cc1Cl — higher, 1.4
